Results published in patent US8686130B2, “Artificial fluorescent bases” (Riken, priority 2009, dated 2014).

Experiment: Fluorescence of ribonucleoside 5′-triphosphates and shRNAs excited at 365 nm (dot blot on nylon membrane, LAS 4000)
Conditions: excited with light of 365 nm

For Nc1nc(-c2ccc(-c3cccs3)s2)c2ncn([C@@H]3O[C@H](COP(=O)(O)OP(=O)(O)OP(=O)(O)O)[C@@H](O)[C@H]3O)c2n1 [ssTP], the “Fluorescence intensity at the maximum wavelength (rank order)” value was “DssTP>ssTP>sTP” and the “Maximum wavelength of fluorescence” value was 468 nm.
